Screening results (PubChem BioAssay)
Sampled rows, rich in hits. Any-hit rate of the full collection: about 1.2%.
Cneo AK release: Cryptococcus neoformans lysis via adenylate kinase release; C. neoformans lysis, adenylate kinase release luminescence, 4 h; normalised: neutral wells 0, clomiphene wells 100; AID 651654; lysis activity, % at 15 µM; 0.2% of 360,000 active;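 active means mean lysis activity across replicates of at least 80%, whatever share of replicates individually reach that level; inactive means mean lysis activity below 80%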
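Test system: log-phase Cryptococcus neoformans yeast cells. Input: 5 × 10^6 yeast cells/mL. Medium: fresh YPD growth medium. Doses: single dose. Incubation: static 4 h at 37 °C with compound, 1 h detection. Measured by: luminescent adenylate kinase detection reagent. Read-out: signal increase indicating cell lysis. Benchmarks: Clomiphene.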
N-glyco inh: N-linked glycosylation inhibition | D54 ERlucT glycosylation luciferase reporter, 24 h; percent of 100 nM tunicamycin response | reporter increase, % at 12.5 µM | 0.23% of 360,000 active;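 active means mean luciferase reporter signal, scaled so untreated is 0 and the glycosylation-blocking control 100, at or above a set limit in every replicate; inconclusive means mean reaches the limit but not every replicate does; inactive means mean below the limit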;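 further: luciferase carries N-glycosylation sites so blocking glycosylation raises the light; 0% = median of neutral control wells and 100% = median of 100 nM tunicamycin wells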
Statin myotox sup: protects C2C12 myotubes from simvastatin toxicity. AID 602340. ATP luminescence, 48 h; scaled: DMSO 0, geranylgeraniol control 100. rescue of ATP level, % at 7.49 µM. 0.78% of 330,000 active;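 active means mean ATP rescue above about 67%, or every replicate alone reaching that limit, limit read from the data, passing the limit was not always enough; inconclusive means no clear call, values can overlap the other calls; inactive means mean under the limit and some replicate under it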;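 further: myotubes were challenged with 10 µM simvastatin during compound exposure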
miR122 inh: miR-122 inhibition in Huh7 cells; 0.3% of 340,000 active; Huh7 miR-122 Renilla luciferase sensor, 48 h; neutral wells = 0, positive control = 100; activation (reporter increase), % at 12.5 µM;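 active means mean replicate activation score at least 90 and every replicate individually at or above 90; inconclusive means only one of the two criteria met; inactive means neither criterion met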;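 further: higher luciferase means less miR-122 activity so hits act as miR-122 inhibitors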
UUG fidelity: modulators of yeast start codon fidelity, primary screen, whole organism, S. cerevisiae, single point, plate reader | AID 602363, 2012 | S. cerevisiae UUG-firefly luciferase reporter, luminescence/redox ratio | activity score, % at 18.7 µM | hit rate 0.13% among 350,000;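 active = replicate mean at a twofold rise or more, about +100% in these data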;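 also: firefly luciferase made from a UUG start codon reports start codon fidelity; reporter light over untreated wells divided by growth signal over untreated wells; some hits fall short of that in this replicate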
An asterisk follows results filed as active; ? = inconclusive; . = no result given; ! = a repeat was not active; [ ] = dose if it differs, or a comment.

Below each SMILES – Cneo AK release | N-glyco inh | Statin myotox sup | miR122 inh | UUG fidelity
1. CCC(C)NC(C(=O)Nc1ccc(Cl)c([N+](=O)[O-])c1)c1ccccc1 (stereo not drawn)
  . | -4 | . | . | .
2. O=C(Nc1ccc(Cl)c([N+](=O)[O-])c1)C(NCCCO)c1ccccc1 (stereo not drawn)
  0 | -1 | . | 226* | -8
3. CO[C@H](CN(C)Cc1cc(F)ccc1F)[C@@H](C)CN([C@@H](C)CO)S(=O)(=O)c1ccc(F)cc1
  91* | . | -7 | . | .
4. CO[C@@H](CN(C)Cc1cc(F)ccc1F)[C@H](C)CN([C@@H](C)CO)S(=O)(=O)c1ccc(F)cc1
  0 | . | -1 | . | .
5. CCN(CC)CCOc1c(Br)ccc2c1sc1nc3n(c(=O)c12)CCC3
  -2 | 67* | 12 | -10 | 10
6. O=c1c2c(nc3n1CCCCC3)sc1c(O)c(Br)ccc12
  -6 | -10 | -4 | -1 | -36
7. O=S(=O)(c1ccc(Cl)cc1)N1CCN(Cc2cccc(OCCO)c2)CC1
  28 | . | . | . | .
8. O=C(COc1cccc2cccnc12)Nc1nccs1
  -2 | -6 | -2 | 8 | -20
9. NNC(=O)COc1cccc2cccnc12
  5 | 1 | 122* | -5 | -12
10. O=C(NCCN1CCCCC1)[C@H]1N[C@H]2c3ccc(-c4ccncc4)c(=O)n3C[C@H]2[C@@H]1CO
  98* | . | -11 | 10[16.7 µM] | .
11. Cc1noc(C)c1NC(=O)Nc1cccc2c1O[C@H](CN(C)S(=O)(=O)c1cn(C)cn1)[C@H](C)CN([C@H](C)CO)C2=O
  96* | . | -4 | 11[16.7 µM] | 17
12. Cc1noc(C)c1NC(=O)Nc1cccc2c1O[C@H](CN(C)S(=O)(=O)c1ccc(F)cc1)[C@@H](C)CN([C@H](C)CO)C2=O
  -3 | 0 | 81*! | -20[16.7 µM] | -5
13. CC(=O)c1cccc(NC(=O)C(C)N2CCc3ccccc3C2)c1 (stereo not drawn)
  0 | -1 | 3 | 128* | -11
14. Cc1cccc(NC(=O)Cn2nnc3sc4c(c3c2=O)CC(C)(C)OC4)c1
  5 | -1 | . | 3 | 6
15. COc1cccc(NC(=O)Cn2c(=O)n(C)c(=O)c3sc4c(c32)COC(C)(C)C4)c1
  0 | 1 | 136* | -6 | -7
16. C[C@@H]1CN([C@@H](C)CO)C(=O)c2cc(NS(=O)(=O)c3ccc(Cl)cc3)ccc2O[C@@H](C)CCCCO[C@@H]1CN(C)C(=O)Nc1cccc2ccccc12
  -3 | . | 142* | 14[16.7 µM] | 3
17. C[C@H](CO)N1C[C@H](C)[C@@H](CN(C)C(=O)Nc2cccc3ccccc23)OCCCC[C@H](C)Oc2ccc(NS(=O)(=O)c3ccc(Cl)cc3)cc2C1=O
  0 | . | ? | -9[16.7 µM] | -18
18. C[C@@H]1CCCCO[C@@H](CN(C)C(=O)Nc2cccc3ccccc23)[C@H](C)CN([C@H](C)CO)C(=O)c2cc(NS(=O)(=O)c3ccc(Cl)cc3)ccc2O1
  -6 | . | 87* | 2[16.7 µM] | -9
19. C[C@H](CO)N1C[C@H](C)[C@H](CN(C)C(=O)Nc2cccc3ccccc23)OCCCC[C@H](C)Oc2ccc(NS(=O)(=O)c3ccc(Cl)cc3)cc2C1=O
  -2 | . | 135* | -8[16.7 µM] | -9
20. CCOC(=O)CNC(=S)N(Cc1ccco1)Cc1ccccc1Cl
  -2 | -4 | -3 | . | -20
21. COc1ccc(-c2cnc3c(c2)C(=O)N([C@@H](C)CO)C[C@@H](C)[C@@H](CN(C)S(C)(=O)=O)O3)cc1
  93* | . | 10 | 38[16.7 µM] | 21
22. C[C@@H]1CN([C@H](C)CO)C(=O)c2cc(-c3cccc(F)c3)cnc2O[C@H]1CN(C)Cc1ccccc1
  116* | . | -5 | -2[16.7 µM] | 28
23. C[C@@H]1CN([C@@H](C)CO)C(=O)c2cc(C3=CCCCC3)cnc2O[C@H]1CN(C)C(=O)Cc1cccnc1
  110* | . | 4 | 0[16.7 µM] | 5
24. COc1ccc(-c2cnc3c(c2)C(=O)N([C@H](C)CO)C[C@H](C)[C@H](CN(C)S(C)(=O)=O)O3)cc1
  -16 | . | 4 | 16[16.7 µM] | 8
25. CC(C)CC#Cc1cnc2c(c1)C(=O)N([C@H](C)CO)C[C@H](C)[C@@H](CN(C)Cc1cccc(F)c1)O2
  88* | . | 36 | 25[16.7 µM] | 23
26. CC(C)CC#Cc1cnc2c(c1)C(=O)N([C@@H](C)CO)C[C@@H](C)[C@H](CN(C)Cc1cccc(F)c1)O2
  1 | . | 63 | -2[16.7 µM] | 20
27. O=C(COc1ccccc1)Nc1cc(NC(=O)COc2ccccc2)cc(C(=O)O)c1
  3 | -1 | 16 | 0 | 8
28. C[C@@H]1CN([C@H](C)CO)C(=O)c2cc(-c3cncnc3)cnc2O[C@H]1CN(C)C(=O)c1ccccc1F
  0 | . | -1 | -1[16.7 µM] | 7
29. C[C@@H]1CN([C@H](C)CO)C(=O)c2cc(-c3ccc(F)cc3)cnc2O[C@@H]1CN(C)Cc1ccc(F)cc1
  . | . | 14 | -4[16.7 µM] | -11
30. C[C@H]1CN([C@@H](C)CO)C(=O)c2cc(-c3ccc(F)cc3)cnc2O[C@@H]1CN(C)CC1CCCCC1
  90* | . | -38 | 7[16.7 µM] | 21

The listing continues.
Below each SMILES – Cneo AK release | N-glyco inh | Statin myotox sup | miR122 inh | UUG fidelity
31. C[C@H](CO)N1C[C@H](C)[C@@H](CN(C)CC2CCCC2)Oc2ncc(-c3ccc(F)cc3)cc2C1=O
  2 | . | -2 | 48[16.7 µM] | 5
32. CNC[C@H]1Oc2ncc(C#CCC(C)C)cc2C(=O)N([C@H](C)CO)C[C@H]1C
  90* | . | 7 | 22[16.7 µM] | 27
33. COc1ccc(-c2cnc3c(c2)C(=O)N([C@H](C)CO)C[C@H](C)[C@H](CN(C)Cc2ccc(F)cc2)O3)cc1
  98* | . | 54 | 37[16.7 µM] | 3
34. C[C@H]1CN([C@@H](C)CO)C(=O)c2cc(-c3cncnc3)cnc2O[C@H]1CN(C)C(=O)c1ccccc1F
  90* | . | -14 | 10[16.7 µM] | 19
35. Cc1ccc(NC(=O)C2CCN(S(C)(=O)=O)CC2)cc1Cl
  3 | 4 | -33 | 2 | 18
36. C[C@@H]1CN([C@H](C)CO)C(=O)c2cccc(NC(=O)Nc3cccc4ccccc34)c2O[C@@H]1CN(C)Cc1ccc(Oc2ccccc2)cc1
  0 | . | -5 | -7[16.7 µM] | -1
37. COc1cccc(S(=O)(=O)N(C)C[C@@H]2Oc3ncc(-c4cccc(F)c4)cc3C(=O)N([C@H](C)CO)C[C@@H]2C)c1
  112* | . | 7 | 0[16.7 µM] | 15
38. C[C@H]1CN([C@@H](C)CO)C(=O)c2cc(C#Cc3ccccn3)cnc2O[C@H]1CN(C)Cc1ccncc1
  94* | . | 16 | 0[16.7 µM] | 6
39. C[C@H](CO)N1C[C@H](C)[C@H](CN(C)Cc2ccncc2)Oc2ncc(C#Cc3ccccn3)cc2C1=O
  0 | . | -3 | -7[16.7 µM] | -13
40. CNC(=O)c1ccccc1S(=O)(=O)c1ccccc1C#N
  -4 | -1 | 101* | 1 | 0
41. Cc1ccccc1-c1ccc2c(c1)O[C@@H](CN(C)Cc1ccncc1)[C@H](C)CN([C@@H](C)CO)S2(=O)=O
  -5 | . | -75 | -2[16.7 µM] | -5
42. O=C(Cc1ccccn1)N[C@H]1CC[C@@H](CCn2cc(-c3cccnc3)nn2)O[C@H]1CO
  0 | . | -1 | . | 0

Record cards, from the list above:
O=C(Cc1ccccn1)N[C@H]1CC[C@@H](CCn2cc(-c3cccnc3)nn2)O[C@H]1CO in the list: Cneo AK release: 0; N-glyco inh: .; Statin myotox sup: -1; miR122 inh: .; UUG fidelity: 0
COc1ccc(-c2cnc3c(c2)C(=O)N([C@H](C)CO)C[C@H](C)[C@H](CN(C)Cc2ccc(F)cc2)O3)cc1 in the list: Cneo AK release: 98*; N-glyco inh: .; Statin myotox sup: 54; miR122 inh: 37[16.7 µM]; UUG fidelity: 3
O=c1c2c(nc3n1CCCCC3)sc1c(O)c(Br)ccc12 in the list: Cneo AK release: -6; N-glyco inh: -10; Statin myotox sup: -4; miR122 inh: -1; UUG fidelity: -36
